Measurements taken from patent publication US8816089B2, “Methods for controlling SR protein phosphorylation, and antiviral agents whose active ingredients comprise agents that control SR protein activity” (priority 2003, dated 2014).

Chains of the proteins cited; added tags and fusions are not shown. Lines headed by an entry give the natural chain unless they say otherwise; changes in a name come on top.
UniProt Q9HAZ1, whole entry, species assumed: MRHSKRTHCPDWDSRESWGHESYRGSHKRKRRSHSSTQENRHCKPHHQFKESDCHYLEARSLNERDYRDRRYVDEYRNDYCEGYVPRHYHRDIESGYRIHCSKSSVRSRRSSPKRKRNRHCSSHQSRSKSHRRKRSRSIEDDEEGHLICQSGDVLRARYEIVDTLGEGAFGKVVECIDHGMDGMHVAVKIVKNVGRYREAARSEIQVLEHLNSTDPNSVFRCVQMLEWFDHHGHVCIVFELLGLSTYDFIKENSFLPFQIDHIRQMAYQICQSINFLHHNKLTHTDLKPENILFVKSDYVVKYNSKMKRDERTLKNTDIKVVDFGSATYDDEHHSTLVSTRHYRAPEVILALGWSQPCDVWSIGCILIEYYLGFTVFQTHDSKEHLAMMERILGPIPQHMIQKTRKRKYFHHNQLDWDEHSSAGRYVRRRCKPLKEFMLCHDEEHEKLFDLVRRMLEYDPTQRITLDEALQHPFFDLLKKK
UniProt P49760, whole entry, species assumed: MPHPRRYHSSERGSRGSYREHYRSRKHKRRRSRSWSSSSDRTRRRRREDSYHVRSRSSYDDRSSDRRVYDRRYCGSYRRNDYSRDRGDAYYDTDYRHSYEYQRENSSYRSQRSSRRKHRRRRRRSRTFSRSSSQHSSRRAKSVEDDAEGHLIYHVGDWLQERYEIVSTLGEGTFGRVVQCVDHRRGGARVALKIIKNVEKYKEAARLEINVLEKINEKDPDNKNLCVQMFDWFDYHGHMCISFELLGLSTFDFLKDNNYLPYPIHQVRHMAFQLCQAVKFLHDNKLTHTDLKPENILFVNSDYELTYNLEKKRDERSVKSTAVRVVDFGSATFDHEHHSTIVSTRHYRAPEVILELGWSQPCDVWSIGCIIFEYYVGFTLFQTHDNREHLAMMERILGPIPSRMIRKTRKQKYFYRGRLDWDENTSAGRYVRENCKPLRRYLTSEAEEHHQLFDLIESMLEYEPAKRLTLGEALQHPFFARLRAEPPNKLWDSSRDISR
UniProt P49761, whole entry, species assumed: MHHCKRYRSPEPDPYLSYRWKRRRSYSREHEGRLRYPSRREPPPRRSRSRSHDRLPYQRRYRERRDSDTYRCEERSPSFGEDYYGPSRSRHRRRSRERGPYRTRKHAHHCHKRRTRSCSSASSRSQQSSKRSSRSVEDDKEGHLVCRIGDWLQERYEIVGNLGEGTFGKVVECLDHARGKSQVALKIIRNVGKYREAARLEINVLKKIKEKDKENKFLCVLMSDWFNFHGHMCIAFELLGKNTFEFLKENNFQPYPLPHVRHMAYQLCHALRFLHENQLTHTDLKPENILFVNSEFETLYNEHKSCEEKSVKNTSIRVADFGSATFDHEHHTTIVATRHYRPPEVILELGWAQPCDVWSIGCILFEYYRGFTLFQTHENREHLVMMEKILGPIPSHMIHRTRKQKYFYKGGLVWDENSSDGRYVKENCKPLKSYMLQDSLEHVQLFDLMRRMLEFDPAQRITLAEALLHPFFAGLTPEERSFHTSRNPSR
UniProt P49759: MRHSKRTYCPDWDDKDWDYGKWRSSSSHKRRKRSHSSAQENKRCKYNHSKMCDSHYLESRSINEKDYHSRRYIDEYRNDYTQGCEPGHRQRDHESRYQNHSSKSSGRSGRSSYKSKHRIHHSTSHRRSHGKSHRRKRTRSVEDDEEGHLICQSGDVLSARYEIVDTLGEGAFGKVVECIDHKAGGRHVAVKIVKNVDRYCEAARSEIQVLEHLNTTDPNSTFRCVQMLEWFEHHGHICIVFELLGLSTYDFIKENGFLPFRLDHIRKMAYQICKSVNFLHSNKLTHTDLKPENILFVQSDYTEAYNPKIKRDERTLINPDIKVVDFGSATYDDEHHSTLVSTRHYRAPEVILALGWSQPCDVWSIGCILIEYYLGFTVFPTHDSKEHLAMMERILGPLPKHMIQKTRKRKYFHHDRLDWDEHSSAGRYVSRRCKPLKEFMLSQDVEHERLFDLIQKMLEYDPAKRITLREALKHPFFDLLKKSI

Assays:
Settings in all cases: final concentration of 10 μM
[1] = biological target: CLK4 (Homo sapiens, UniProt Q9HAZ1)
[2] = biological target: CLK2 (Homo sapiens, UniProt P49760)
[3] = biological target: CLK3 (Homo sapiens, UniProt P49761)
[4] = biological target: CLK1 (Homo sapiens, UniProt P49759)

O=C(Nc1cc(C(F)(F)F)ccc1N1CCCCC1)c1ccncc1 [Compound No. 340, N-[2-(1-piperidinyl)-5-(trifluoromethyl)phenyl]isonicotinamide]
did not exhibit an inhibitory effect: inhibitory effect on CLK4 [1] | inhibitory effect on CLK2 [2] | inhibitory effect on CLK3 [3] | inhibitory effect on CLK1 [4]
